{"source": "patent US6200963A", "about": "“Aryl sulfonic acids as FSH antagonists” (American Home Products Corporation, priority 2000, dated 2001)", "key": {"FSH receptor [1]": {"target": "T1, FSH receptor (Rattus norvegicus, UniProt P20395)", "T1 sequence (P20395 18-692)": "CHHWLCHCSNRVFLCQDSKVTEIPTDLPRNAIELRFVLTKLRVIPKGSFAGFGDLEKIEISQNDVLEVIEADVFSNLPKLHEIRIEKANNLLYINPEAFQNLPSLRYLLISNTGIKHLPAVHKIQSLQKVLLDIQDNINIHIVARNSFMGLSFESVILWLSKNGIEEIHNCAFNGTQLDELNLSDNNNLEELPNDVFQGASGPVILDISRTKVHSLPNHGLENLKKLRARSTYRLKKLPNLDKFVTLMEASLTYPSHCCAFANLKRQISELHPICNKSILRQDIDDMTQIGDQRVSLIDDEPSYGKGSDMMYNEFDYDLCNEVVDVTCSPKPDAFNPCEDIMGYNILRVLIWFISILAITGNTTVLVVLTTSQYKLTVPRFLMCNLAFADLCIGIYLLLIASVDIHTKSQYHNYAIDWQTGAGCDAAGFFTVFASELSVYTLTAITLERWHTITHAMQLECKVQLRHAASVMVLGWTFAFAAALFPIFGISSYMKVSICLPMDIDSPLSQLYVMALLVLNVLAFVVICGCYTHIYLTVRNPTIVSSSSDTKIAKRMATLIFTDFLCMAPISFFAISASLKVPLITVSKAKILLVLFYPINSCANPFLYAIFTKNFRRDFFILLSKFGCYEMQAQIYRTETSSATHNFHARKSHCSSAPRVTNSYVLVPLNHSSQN", "assay": "In Vitro Bioassay of Agonists and Antagonists to the FSH Receptor using Primary Cultures of Rat Granulosa (estradiol secretion)", "type": "cell-based", "design": "immature female Sprague-Dawley rats (Charles River Laboratories, Wilmington, Mass.) were used as donors for ovarian granulosa cells; endogenous in cells; host or cells: primary ovarian granulosa cells of immature female Sprague-Dawley rats", "conditions": "previously calculated during characterization of the bioassay", "description": "In Vitro Bioassay of Agonists and Antagonists to the FSH Receptor using Primary Cultures of Rat Granulosa\nThe following procedure was used as a low-throughput functional screening assay to study in vitro efficacy of compounds found to be agonists or antagonists of the FSH receptor.\nMaterials and Methods: Reagents\nCompound Vehicle: Stock compounds were solubilized in an appropriate vehicle, preferably PBS (phosphate buffered saline) or DMSO (dimethyl sulfoxide), at a concentration of 0.1 M. The compounds were subsequently diluted in sterile challenge medium [McCoy's 5A medium (Gibco/BRL, Grand Island, N.Y.) supplemented with 5 mg/mL insulin, 5 mg/mL transferrin, 5 ng/mL sodium selenite (ITS, Sigma Chemical Co., St. Louis, Mo.), 146 mg/mL L-glutamine, 100 nM testosterone, 100 nM DES and 100 U/mL penicillin/10 mg/mL streptomycin/250 ng/mL amphotericin B (antibiotic/antimycotic, Gibco) and 0.1% bovine serum albumin (Sigma, St. Louis, Mo.)] prior to use in the assay. […]\nPreparation of Granulosa Cells: Twenty-four day-old immature female Sprague-Dawley rats (Charles River Laboratories, Wilmington, Mass.) were used as donors for ovarian granulosa cells. […] After the final spin, the cells were resuspended by gentle trituration in 25 mL serum-free medium, an aliquot counted in a hemocytometer and viability estimated by trypan blue exclusion. […]"}, "FSH receptor [2]": {"target": "T2, FSH receptor (Homo sapiens, UniProt P23945)", "T2 sequence (P23945 18-695)": "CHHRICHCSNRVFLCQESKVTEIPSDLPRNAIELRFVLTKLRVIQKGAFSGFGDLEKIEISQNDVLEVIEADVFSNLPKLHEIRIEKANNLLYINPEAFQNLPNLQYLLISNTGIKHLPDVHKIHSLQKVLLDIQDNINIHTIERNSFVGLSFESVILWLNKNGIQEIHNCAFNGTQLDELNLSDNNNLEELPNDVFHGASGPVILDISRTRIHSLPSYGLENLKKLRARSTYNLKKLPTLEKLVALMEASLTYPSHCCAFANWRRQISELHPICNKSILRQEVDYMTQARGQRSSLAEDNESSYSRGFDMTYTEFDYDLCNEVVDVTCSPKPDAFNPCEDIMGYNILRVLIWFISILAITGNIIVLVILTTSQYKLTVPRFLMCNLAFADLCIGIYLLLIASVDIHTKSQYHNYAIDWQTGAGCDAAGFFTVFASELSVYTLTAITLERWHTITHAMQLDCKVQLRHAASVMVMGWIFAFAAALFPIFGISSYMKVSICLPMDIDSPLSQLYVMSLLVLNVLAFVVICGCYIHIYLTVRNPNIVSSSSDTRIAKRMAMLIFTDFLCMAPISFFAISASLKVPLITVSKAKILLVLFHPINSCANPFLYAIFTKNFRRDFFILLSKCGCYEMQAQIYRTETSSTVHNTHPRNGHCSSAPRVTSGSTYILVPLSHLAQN", "assay": "In Vitro Bio-assay of Agonists and Antagonists to the FSH Receptor (cAMP accumulation in CHO-3D2 cells)", "type": "cell-based", "design": "expressed in transfected cells; host or cells: CHO-3D2 cells", "conditions": "agonist mode, reference", "description": "In Vitro Bio-assay of Agonists and Antagonists to the FSH Receptor\nThe following procedure was used as a screening assay to verify in vitro efficacy of compounds found to bind to the FSH receptor in the binding assay.\nCompound Vehicle: Stock compounds were solubilized in an appropriate vehicle preferably PBS/0.1% Bovine Serum Albumin (BSA; Sigma Chemical Co., St. Louis, Mo.). The compounds were subsequently diluted in sterile assay medium (Optimem (Gibco/BRL, Grand Island, N.Y.)/0.1% BSA) prior to use in the bio-assay.\nPreparation of CHO-3D2 Cells; CHO-3D2 cells were plated into 96-well Nunc tissue culture plates at a density of 30,000 cells/well in DMEM/F12 medium (Gibco/BRL, Grand Island, N.Y.) supplemented with 5% Fetal Bovine Serum (Hyclone, Fetal Clone II), 2 mM L-glutamine and penicillin/streptomycin (100 U/mL). Cells were plated one day prior to performing the bio-assay.\nAssay: On the day of assay, the wells were washed two times with 100 ul/well of pre-warmed (37 deg C.) assay medium. After aspirating the second wash, an additional 100 ul of assay medium was added to each well and the cells pre-incubated for 30-45 minutes at 37 deg C. in a humidified incubator with 5% CO2/95% air. The cells were then challenged with varying dilutions of the test substance(s) in a 50 ul total incubation volume in assay medium for 30 minutes at 37 deg C in the humidified incubator. The challenge was terminated by the addition of 50 ul of 0.2 N HCl to each well. cAMP accumulation in the medium was measured by radioimmunoassay.\nExperimental Groups: In the 96-well format, the plate is organized into 12 columns each containing 8 rows of wells. The plate was split in half to test a single compound in both agonist and antagonist mode on the same plate.\nFor agonist mode, compounds were tested using 5 different concentrations in a dose-response paradigm using one column as a control (challenge medium alone) in agonist mode.\nFor antagonist mode, compounds were tested in a dose-response paradigm versus a constant level of purified human FSH (the ED20 (1.85 ng/mL); previously calculated during characterization of the bio-assay). The 96-well format allowed for the capability to test 4 columns of compound, using one of the remaining columns for negative control (challenge medium alone) and the other remaining column for ampositive control (ED20 of FSH alone). […]\nAnalysis of Results: cAMP accumulation was expressed as fmol/mL. cAMP accumulation in agonist mode, or the ability of the compound to inhibit hFSH-induced cAMP accumulation in antagonist mode was compared to the appropriate negative and positive controls. Data were analyzed statistically by analysis of variance and significant differences between treatments and control determined by Dunnett's test. […]"}, "[3]": {"conditions": "four-parameter logistic equation"}}, "data": [{"substance": "hFSH: purified or recombinant human FSH", "values": [{"measurement": "ED50 of FSH, estradiol secretion", "setting": "FSH receptor [1]", "value": 0.5, "unit": "ng/mL"}, {"measurement": "cAMP accumulation", "setting": "FSH receptor [2]; in words", "value": "dose-dependent increase in cAMP accumulation"}, {"measurement": "apparent ED20, cAMP accumulation", "setting": "FSH receptor [2]; [3]", "value": 1.85, "unit": "ng/mL"}, {"measurement": "apparent ED50, cAMP accumulation", "setting": "FSH receptor [2]; [3]", "value": 6.03, "unit": "ng/mL"}, {"measurement": "apparent ED80, cAMP accumulation", "setting": "FSH receptor [2]; [3]", "value": 22.55, "unit": "ng/mL"}]}]}
